{
  "source": "patent US20220289794A1",
  "about": "“SYNTHETIC ANTIMICROBIAL PEPTIDES” (priority 2019, published 2022)",
  "key": {"[1]": {"test_system": "Klebsiella pneumoniae (KPC, ATCC BAA-1705)", "assay": "microbe, parasite or virus in culture", "details": "ATCCBAA1705, 24 h, read-out: MIC of antibiotic"}, "[2]": {"test_system": "Klebsiella pneumoniae (KPC, ATCC BAA-1705)"}},
  "data": [
    {"smiles": "CCC[C@@H]1C[C@@H](C(=O)N[C@@H]([C@H]2O[C@H](SC)[C@H](O)[C@@H](O)[C@H]2O)[C@H](C)Cl)N(C)C1", "note": "[Clindamycin]", "values": [
      {"measurement": "MIC", "setting": "[1]", "value": "> 256", "unit": "µg/mL"},
      {"measurement": "MIC of antibiotic", "setting": "[2]", "value": "> 256", "unit": "µg/mL"},
      {"measurement": "MIC of antibiotics", "setting": "[2]", "value": ">256", "unit": "µg/mL"}
    ]}
  ]
}
